Results published in PMC5797642, “Inverse Modulation of Neuronal Kv12.1 and Kv11.1 Channels by 4-Aminopyridine and NS1643” (Frontiers in Molecular Neuroscience, 2018).

Legend:
Kv11.1 (Erg1) = molecular target: T1, Kv11.1 (Erg1) (Rattus norvegicus, UniProt O08962); assay: cell-based
T1 construct: gene Kcnh2
T1 sequence (O08962 1-1163): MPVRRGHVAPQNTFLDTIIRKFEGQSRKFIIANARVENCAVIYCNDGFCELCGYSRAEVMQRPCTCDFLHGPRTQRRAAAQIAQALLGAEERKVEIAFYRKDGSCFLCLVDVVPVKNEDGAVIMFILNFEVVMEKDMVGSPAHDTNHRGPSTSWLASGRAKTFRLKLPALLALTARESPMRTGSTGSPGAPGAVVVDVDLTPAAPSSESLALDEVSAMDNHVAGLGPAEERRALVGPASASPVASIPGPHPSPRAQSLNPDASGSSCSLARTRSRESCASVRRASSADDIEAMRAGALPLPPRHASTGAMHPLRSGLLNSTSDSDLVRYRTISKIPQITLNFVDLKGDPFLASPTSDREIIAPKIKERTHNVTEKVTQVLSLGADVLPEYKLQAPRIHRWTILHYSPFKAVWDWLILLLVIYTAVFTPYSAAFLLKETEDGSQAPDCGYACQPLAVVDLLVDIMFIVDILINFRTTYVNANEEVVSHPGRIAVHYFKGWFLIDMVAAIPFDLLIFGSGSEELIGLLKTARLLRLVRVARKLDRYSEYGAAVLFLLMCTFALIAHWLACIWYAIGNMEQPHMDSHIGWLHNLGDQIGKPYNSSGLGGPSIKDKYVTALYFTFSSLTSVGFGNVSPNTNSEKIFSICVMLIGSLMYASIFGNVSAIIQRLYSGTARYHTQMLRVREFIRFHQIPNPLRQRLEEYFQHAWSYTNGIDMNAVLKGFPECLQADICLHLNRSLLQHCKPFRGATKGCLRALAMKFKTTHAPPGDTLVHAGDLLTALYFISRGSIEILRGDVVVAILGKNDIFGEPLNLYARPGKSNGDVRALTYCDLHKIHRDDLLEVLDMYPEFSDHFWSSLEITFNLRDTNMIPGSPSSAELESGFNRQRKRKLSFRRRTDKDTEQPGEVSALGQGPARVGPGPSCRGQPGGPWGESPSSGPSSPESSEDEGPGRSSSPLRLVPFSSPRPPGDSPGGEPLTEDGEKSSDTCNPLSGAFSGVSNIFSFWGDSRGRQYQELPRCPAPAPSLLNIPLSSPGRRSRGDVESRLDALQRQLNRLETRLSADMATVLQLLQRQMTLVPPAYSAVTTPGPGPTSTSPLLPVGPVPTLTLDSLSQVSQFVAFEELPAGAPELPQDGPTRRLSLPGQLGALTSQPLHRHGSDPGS

Kv12.1 (Elk1) = molecular target: T2, Kv12.1 (Elk1) (Homo sapiens, UniProt Q96L42); assay: cell-based; parameters: gene KCNH8
T2 sequence (Q96L42 1-1107): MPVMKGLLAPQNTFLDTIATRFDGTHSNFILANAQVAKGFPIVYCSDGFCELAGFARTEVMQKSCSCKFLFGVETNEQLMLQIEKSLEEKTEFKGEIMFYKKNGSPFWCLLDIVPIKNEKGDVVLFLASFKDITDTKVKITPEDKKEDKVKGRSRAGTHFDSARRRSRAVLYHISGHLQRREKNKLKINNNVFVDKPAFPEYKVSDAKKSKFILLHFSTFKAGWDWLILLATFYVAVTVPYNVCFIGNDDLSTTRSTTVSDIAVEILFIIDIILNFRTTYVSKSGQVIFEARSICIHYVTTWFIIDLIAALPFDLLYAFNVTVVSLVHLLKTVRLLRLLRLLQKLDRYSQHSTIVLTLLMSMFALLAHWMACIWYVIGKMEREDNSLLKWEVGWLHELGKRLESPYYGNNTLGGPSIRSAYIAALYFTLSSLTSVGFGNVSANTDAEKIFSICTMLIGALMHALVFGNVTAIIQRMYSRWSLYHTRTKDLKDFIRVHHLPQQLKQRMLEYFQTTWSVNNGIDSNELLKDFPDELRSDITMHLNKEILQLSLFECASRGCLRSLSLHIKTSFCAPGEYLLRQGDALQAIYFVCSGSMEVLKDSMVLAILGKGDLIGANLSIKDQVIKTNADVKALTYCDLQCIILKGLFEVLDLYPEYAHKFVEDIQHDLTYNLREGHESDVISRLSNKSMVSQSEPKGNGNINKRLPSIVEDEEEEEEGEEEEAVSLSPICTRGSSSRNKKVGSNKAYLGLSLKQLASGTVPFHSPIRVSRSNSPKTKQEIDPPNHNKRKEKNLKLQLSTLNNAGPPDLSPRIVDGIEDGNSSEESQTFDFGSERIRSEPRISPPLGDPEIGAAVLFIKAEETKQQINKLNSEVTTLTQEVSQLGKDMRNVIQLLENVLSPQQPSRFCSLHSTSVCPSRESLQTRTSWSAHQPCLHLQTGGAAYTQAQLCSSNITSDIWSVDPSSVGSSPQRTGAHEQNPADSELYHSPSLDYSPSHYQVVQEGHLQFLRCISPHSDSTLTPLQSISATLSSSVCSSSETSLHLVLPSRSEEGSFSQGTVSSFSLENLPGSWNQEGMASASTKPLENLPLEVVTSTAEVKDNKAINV

**Q.** Which results are given for Nc1ccncc1 [4-AP, 4-aminopyridine]?
**A.** IC50 (Kv11.1 (Erg1)): ~2600 µM; EC50 (Kv12.1 (Elk1)): ~2100 µM
